Measured values reported in article PMC4577729, “7-(Pyrazol-4-yl)-3H-imidazo[4,5-b]pyridine-based derivatives for kinase inhibition: Co-crystallisation studies with Aurora-A reveal distinct differences in the orientation of the pyrazole N1-substituent” (Bioorganic & Medicinal Chemistry Letters, 2015).

By UniProt entry, the sequences of proteins in these tests, tags left out.
UniProt O14965, whole entry: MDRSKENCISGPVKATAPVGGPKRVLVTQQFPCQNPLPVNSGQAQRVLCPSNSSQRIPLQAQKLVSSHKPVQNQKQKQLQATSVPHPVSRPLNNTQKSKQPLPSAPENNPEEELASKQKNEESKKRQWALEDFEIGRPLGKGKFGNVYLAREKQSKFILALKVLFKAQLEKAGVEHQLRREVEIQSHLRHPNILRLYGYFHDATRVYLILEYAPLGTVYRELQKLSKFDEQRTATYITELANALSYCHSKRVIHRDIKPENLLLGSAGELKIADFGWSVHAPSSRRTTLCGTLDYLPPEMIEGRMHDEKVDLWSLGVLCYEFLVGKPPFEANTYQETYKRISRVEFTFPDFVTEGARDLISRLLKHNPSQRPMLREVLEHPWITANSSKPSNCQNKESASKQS
UniProt Q96GD4, whole entry: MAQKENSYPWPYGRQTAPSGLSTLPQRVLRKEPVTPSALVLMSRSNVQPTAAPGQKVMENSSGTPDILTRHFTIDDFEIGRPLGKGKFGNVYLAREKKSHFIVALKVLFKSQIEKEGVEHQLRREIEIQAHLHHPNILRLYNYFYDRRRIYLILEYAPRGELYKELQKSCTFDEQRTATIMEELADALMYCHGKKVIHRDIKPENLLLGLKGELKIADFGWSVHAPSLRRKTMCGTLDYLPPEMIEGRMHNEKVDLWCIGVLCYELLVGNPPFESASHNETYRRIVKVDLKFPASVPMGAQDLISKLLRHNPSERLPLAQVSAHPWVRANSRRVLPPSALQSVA

Tests used:
Aurora A = Aurora A (Homo sapiens, UniProt O14965); experiment: Aurora-A microfluidic kinase assay; details: read-out: Aurora-A IC50; biochemical; mean of two determinations or mean ±SD for n > 2
Aurora B = Aurora B (Homo sapiens, UniProt Q96GD4); experiment: Aurora-B microfluidic kinase assay; details: read-out: Aurora-B IC50; biochemical; mean of two determinations or mean ±SD for n > 2
[1] = Mouse liver microsomal stability; assay type: in vitro ADME; details: percentage of compound metabolised after a 30 min incubation, mouse liver microsomes
[2] = Human liver microsomal stability; assay type: in vitro ADME; details: percentage of compound metabolised after a 30 min incubation, human liver microsomes
[3] = test system: HCT116 human colon carcinoma cells; experiment: HCT116 cell growth inhibition; details: read-out: GI50 HCT116, 72 h incubation

| IC50 (Aurora A) [nM] | IC50 (Aurora B) [nM] | MLM % met/30 min [1] [%] | HLM % met/30 min [2] [%] | GI50 [3] [nM] | Compound |
| --- | --- | --- | --- | --- | --- |
| 14 | 17 | 97 | 95 |  | Cc1nn(C)cc1-c1nc2c(-c3cnn(Cc4cccc(CN(C)C)c4)c3)c(Cl)cnc2[nH]1 |
| 182 | 347 | 52 | 39 | 200 | Cc1nn(C)cc1-c1nc2c(-c3cnn(Cc4ccc(F)cc4)c3)c(Cl)cnc2[nH]1 |
| 322 | 458 | 31 | 28 | 130 | Cc1nn(C)cc1-c1nc2c(-c3cnn(Cc4ccc(F)c(F)c4)c3)c(Cl)cnc2[nH]1 |
| 17 | 31 | 100 | 92 |  | Cc1nn(C)cc1-c1nc2c(-c3cnn(Cc4cccc(CN5CCCC5)c4)c3)c(Cl)cnc2[nH]1 |
